The chains behind the UniProt entries cited, without tags or fusion partners. Where a name states a change or a piece, a line headed by the entry shows the natural chain unless it says otherwise.
UniProt P63086, whole entry: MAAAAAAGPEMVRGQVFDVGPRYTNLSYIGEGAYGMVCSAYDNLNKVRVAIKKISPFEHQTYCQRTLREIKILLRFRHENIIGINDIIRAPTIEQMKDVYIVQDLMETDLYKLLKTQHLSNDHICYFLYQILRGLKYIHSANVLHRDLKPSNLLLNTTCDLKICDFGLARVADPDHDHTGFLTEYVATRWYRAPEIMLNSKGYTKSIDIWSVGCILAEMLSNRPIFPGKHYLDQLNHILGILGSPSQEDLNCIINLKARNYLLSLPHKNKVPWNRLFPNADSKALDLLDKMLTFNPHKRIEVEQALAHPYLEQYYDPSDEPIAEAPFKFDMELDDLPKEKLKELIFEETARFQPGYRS
UniProt P63086, whole entry D319N: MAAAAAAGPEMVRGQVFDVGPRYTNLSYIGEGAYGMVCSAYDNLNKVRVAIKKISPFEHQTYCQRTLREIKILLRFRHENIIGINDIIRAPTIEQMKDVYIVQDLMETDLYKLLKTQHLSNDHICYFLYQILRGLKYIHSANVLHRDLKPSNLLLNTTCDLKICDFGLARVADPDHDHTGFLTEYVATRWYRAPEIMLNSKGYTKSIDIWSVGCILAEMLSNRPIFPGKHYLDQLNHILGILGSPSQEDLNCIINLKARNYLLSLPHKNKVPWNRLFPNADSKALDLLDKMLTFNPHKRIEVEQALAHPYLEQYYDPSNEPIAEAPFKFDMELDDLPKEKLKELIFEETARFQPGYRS
UniProt P63086, whole entry T157A: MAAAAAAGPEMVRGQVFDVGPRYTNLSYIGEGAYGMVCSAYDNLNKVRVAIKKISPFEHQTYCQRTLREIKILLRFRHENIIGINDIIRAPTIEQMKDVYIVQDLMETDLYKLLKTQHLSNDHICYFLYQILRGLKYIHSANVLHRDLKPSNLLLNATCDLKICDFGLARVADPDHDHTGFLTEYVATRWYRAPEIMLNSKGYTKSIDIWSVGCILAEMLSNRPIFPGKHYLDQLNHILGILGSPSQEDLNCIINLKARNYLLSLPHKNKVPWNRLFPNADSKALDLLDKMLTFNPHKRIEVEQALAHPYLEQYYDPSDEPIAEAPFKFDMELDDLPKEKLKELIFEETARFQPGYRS
UniProt P63086, whole entry T157A/D319N: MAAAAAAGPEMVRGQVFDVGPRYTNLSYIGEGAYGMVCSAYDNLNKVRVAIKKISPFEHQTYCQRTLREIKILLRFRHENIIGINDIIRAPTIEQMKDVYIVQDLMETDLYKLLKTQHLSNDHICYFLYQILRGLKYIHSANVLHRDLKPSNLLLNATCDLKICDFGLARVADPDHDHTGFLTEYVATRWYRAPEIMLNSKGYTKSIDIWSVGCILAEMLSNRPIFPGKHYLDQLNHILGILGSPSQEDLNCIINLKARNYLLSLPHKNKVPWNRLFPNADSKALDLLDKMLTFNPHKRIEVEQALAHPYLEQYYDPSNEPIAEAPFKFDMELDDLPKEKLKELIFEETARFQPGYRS

In patent US9115122B2, “Non-ATP dependent inhibitors of extracellular signal-regulated kinase (ERK)” (UNIVERSITY OF MARYLAND, BALTIMORE, priority 2012, dated 2015):

Columns and labels:
ERK2 T157A/D319N = ERK2 T157A/D319N (Rattus norvegicus (Rat), UniProt P63086, D319N/T157A); test: Fluorescence quenching (FQ) binding affinity; details: read-out: KD T157A/D319N (Site1)
ERK2 T157A = ERK2 T157A (Rattus norvegicus (Rat), UniProt P63086, T157A); test: Fluorescence quenching (FQ) binding affinity; details: read-out: KD T157A (Site1)
ERK2 wild type (WT) = ERK2 wild type (WT) (Rattus norvegicus (Rat), UniProt P63086); test: Fluorescence quenching (FQ) binding affinity; details: read-out: KD ERK2 WT, 1 nM to 20 μM test compound
ERK2 D319N = ERK2 D319N (Rattus norvegicus (Rat), UniProt P63086, D319N); test: Fluorescence quenching (FQ) binding affinity; details: read-out: KD D319N (Site1)
A375 tumor = test: A375 melanoma xenograft in nu/nu mice, combination with temozolomide (TMZ); type: in vivo
Description: FIG. 13. 76.3 enhances TMZ inhibition of A375 melanoma growth in mouse xenographs.
(§1) However, in combination with temozolomide (TMZ), an anti-cancer drug being tested in combination with targeted agents to treat melanoma, 76.3 enhanced TMZ reduction of A375 tumor growth in immune-compromised nu/nu mice (FIG. 13A). Moreover, 76.3 and TMZ also appeared to delay tumor growth in mice harboring A375 tumors indicative of prolonged survival (FIG. 13B).

A375 melanoma cells = test: Proliferation of A375 melanoma cells (Example 3)
Description: We examined the effects of these compounds on proliferation of A375 melanoma cells with BRaf mutations that require ERK activation for survival.
as §1

| Kd (ERK2 T157A/D319N) [µM] | Kd (ERK2 T157A) [µM] | Kd (ERK2 wild type (WT)) [µM] | Kd (ERK2 D319N) [µM] | SMILES | overt toxicity or weight loss in treated mice (A375 tumor; compared to controls) | A375 tumor growth in combination with temozolomide (TMZ) (A375 tumor; immune-compromised nu/nu mice) | effect on A375 cell proliferation (A375 melanoma cells) |
| --- | --- | --- | --- | --- | --- | --- | --- |
| 4 | 2.4 | 3.3 | 1.9 | NCCN1C(=O)S/C(=C\C=C\c2ccccc2)C1=O | – | – | – |
| > 20 | 3 | 2.4 | 18 | COc1ccc(/C=C2\SC(=O)N(CCN)C2=O)cc1OC | – | – | – |

| SMILES | Kd (ERK2 T157A/D319N) [µM] | Kd (ERK2 T157A) [µM] | Kd (ERK2 wild type (WT)) [µM] | Kd (ERK2 D319N) [µM] | overt toxicity or weight loss in treated mice (A375 tumor; compared to controls) | A375 tumor growth in combination with temozolomide (TMZ) (A375 tumor; immune-compromised nu/nu mice) | effect on A375 cell proliferation (A375 melanoma cells) |
| --- | --- | --- | --- | --- | --- | --- | --- |
| NCCN1C(=O)S/C(=C\c2ccc3c(c2)OCO3)C1=O | > 20 | 8.1 | 1.5 | 13.4 | no overt toxicity or weight loss | enhanced TMZ reduction of A375 tumor growth | little effect |
